For this experiment, the target named is Androgen receptor (Homo sapiens) (UniProt P10275). Briefly: Displacement of fluormone from AR LBD after 4 hrs by fluorescence polarization assay. The note with it: concentration not given here.

Sequences of proteins named here, by UniProt entry; tags and fusion partners are left off. A change or cut given only in a name is not applied to a line headed by its entry.
UniProt P10275: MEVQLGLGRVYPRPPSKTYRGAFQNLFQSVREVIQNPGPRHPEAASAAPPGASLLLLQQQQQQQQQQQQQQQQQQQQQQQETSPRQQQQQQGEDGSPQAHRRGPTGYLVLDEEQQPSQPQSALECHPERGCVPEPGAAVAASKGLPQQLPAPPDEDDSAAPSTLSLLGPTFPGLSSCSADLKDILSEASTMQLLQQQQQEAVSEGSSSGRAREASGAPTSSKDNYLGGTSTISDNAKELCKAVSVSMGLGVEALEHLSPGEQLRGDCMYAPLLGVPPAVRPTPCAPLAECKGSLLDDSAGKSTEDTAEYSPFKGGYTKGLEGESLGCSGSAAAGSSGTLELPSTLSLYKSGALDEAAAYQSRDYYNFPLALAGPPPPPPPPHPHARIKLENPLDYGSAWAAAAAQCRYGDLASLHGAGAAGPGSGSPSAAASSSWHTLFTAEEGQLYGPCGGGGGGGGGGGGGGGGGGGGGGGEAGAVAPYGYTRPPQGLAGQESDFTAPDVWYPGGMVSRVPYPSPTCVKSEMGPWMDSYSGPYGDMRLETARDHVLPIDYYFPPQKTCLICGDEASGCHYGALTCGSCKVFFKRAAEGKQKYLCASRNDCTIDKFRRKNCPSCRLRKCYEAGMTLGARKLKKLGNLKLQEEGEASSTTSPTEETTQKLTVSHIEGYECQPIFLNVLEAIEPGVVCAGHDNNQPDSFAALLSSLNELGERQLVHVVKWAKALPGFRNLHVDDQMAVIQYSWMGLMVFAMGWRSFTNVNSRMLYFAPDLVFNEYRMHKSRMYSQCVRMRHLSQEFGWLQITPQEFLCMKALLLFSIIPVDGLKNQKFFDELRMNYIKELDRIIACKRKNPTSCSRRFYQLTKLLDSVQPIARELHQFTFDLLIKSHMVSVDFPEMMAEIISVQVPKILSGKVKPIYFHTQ

This note sets out measurements from ChEMBL document CHEMBL2086322, “"True" antiandrogens-selective non-ligand-binding pocket disruptors of androgen receptor-coactivator interactions: novel tools for prostate cancer” (J Med Chem, 2012).

Take `CCCOc1ccc(/C=N/NC(=O)c2cc3c(ccc4ccccc43)o2)cc1`: the inhibition is 0%.
